Measurements reported in ChEMBL document CHEMBL3797077, “Design and synthesis of N-(4-aminopyridin-2-yl)amides as B-Raf(V600E) inhibitors” (Bioorg Med Chem Lett, 2016).

Species: Homo sapiens
Test: Selectivity ratio of IC50 for recombinant wild type full length human GST-tagged B-Raf to IC50 for recombinant human N-terminal GST-tagged B-Raf V600E mutant

Work on `CC(C)(C)c1cccc(C(=O)Nc2cccc(Nc3ccnc(NC(=O)C4CC4)c3)c2)c1` yielded a Ratio IC50 of 12.
